From ChEMBL document CHEMBL3632504, “Discovery of 1H-pyrazolo[3,4-b]pyridines as potent dual orexin receptor antagonists (DORAs)” (Bioorg Med Chem Lett, 2015)
pKi: −log10 of the molar value.

Amino acid sequences for entries named in this document (tags omitted).
UniProt O43614, whole entry: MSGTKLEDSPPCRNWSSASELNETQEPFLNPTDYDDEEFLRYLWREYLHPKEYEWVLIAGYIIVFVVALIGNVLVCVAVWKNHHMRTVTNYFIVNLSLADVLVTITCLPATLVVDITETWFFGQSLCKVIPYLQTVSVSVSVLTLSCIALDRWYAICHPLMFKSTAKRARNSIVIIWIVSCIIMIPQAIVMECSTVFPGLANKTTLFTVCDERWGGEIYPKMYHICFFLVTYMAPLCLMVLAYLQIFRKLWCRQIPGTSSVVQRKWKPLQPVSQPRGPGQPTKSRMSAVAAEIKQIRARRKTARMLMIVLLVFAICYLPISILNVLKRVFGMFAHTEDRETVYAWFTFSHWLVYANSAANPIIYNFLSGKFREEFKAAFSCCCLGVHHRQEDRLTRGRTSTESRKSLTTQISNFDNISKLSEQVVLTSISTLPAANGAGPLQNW

Biological target: Orexin receptor type 2 (Homo sapiens, UniProt O43614)
Assay: Displacement of [125l]orexin A from human orexin 2 receptor expressed in CHO cells after 1 hr
Type: cell-based

pKi: 8.10
Structure (SMILES): Cc1n[nH]c(C)c1[C@H](C)NC(=O)COc1cc(C(F)(F)F)c2c(-c3ccccc3)nn(C)c2n1
